Test results: publication PMC4849473, “The Chp1 chromodomain binds the H3K9me tail and the nucleosome core to assemble heterochromatin” (Cell Discovery, 2016)

Key:
Conditions in all cases: both partners purified
[1] = target: T1, His6-SUMO-Chp1CD LOOP2A (N52A) (fission yeast (S. pombe), UniProt Q10103 15-75, N52A); assay: pull-down; biotinylated H3K9me3 peptide (1 μg) on streptavidin agarose resin, about 5 μg Chp1CD in 20 μl, 1 h on ice; 20 mM HEPES pH 7.5, 75 mM KCl, 0.5 mM DTT; SDS-PAGE, quantified with ImageJ, normalized to wt
T1 construct: Chp1 chromodomain (Chp1CD), fission yeast; source: E. coli BL21 (DE3)(pLys), purified (Ni-NTA)
T1 sequence: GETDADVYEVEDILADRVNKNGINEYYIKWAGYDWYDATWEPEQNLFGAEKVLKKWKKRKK

[2] = target: T2, His6-SUMO-Chp1CD LOOP1A (R31S, N33A, N35A) (fission yeast (S. pombe), UniProt Q10103 15-75, R31S | N33A | N35A); assay: as above
T2 construct: Chp1 chromodomain (Chp1CD), fission yeast; also called LOOP1A construct; source: E. coli BL21 (DE3)(pLys), purified (Ni-NTA)
T2 sequence: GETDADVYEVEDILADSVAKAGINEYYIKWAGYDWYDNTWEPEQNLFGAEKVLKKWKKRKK

[3] = target: T3, His6-SUMO-Chp1CD LOOP1B (N33A, N35A) (fission yeast (S. pombe), UniProt Q10103 15-75, N33A | N35A); assay: as above
T3 construct: Chp1 chromodomain (Chp1CD), fission yeast; source: E. coli BL21 (DE3)(pLys), purified (Ni-NTA)
T3 sequence: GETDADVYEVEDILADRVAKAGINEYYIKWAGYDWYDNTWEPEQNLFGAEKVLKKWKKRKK

[4] = target: T4, His6-SUMO-Chp1CD LOOP2B (W49A, Y50A, D51A) (fission yeast (S. pombe), UniProt Q10103 15-75, W49A | Y50A | D51A); assay: as above
T4 construct: Chp1 chromodomain (Chp1CD), fission yeast; source: E. coli BL21 (DE3)(pLys), purified (Ni-NTA)
T4 sequence: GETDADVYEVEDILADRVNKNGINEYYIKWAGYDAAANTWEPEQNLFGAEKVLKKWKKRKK

[5] = target: T5, His6-SUMO-Chp1CD (chromodomain of Chp1, wild type) (fission yeast (S. pombe), UniProt Q10103 15-75); assay: as above
T5 construct: Chp1 chromodomain (Chp1CD), fission yeast; several residues at the C-terminus of the α-helix that are missing in the crystal structure are present in this protein; Thrombin cleavage site between the His6 and SUMO tags; also called wild-type Chp1CD; Chp1 chromodomain; source: E. coli BL21 (DE3)(pLys), purified (Ni-NTA, gel filtration Superdex 75); not shown: His6, N-terminal, kept; SUMO, …
T5 sequence: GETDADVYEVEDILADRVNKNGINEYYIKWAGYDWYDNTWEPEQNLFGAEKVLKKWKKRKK

[6] = target: T6, Chp1CD LOOP1B/2B, SUMO tag removed, fluorescently labelled (for MST) (fission yeast (S. pombe), UniProt Q10103 15-75, N33A | N35A | W49A | Y50A | D51A, fluorescent label, amine reactive (Monolith Protein Labeling Kit BLUE-NHS), 1:1 fluorescence:protein ratio); assay: MST; 300 ng fluorescent Chp1CD (SUMO removed) in 20 μl, H3K9me3 peptide titrated; 10 mM Tris-HCl pH 7.5, 150 mM NaCl, 0.5 mM DTT, 0.05% Tween-20; five-parameter logistic fit
T6 construct: Chp1 chromodomain (Chp1CD), fission yeast; carries the mutations of LOOP1B and of LOOP2B; also called LOOP1B/2B Chp1CD mutant; source: E. coli BL21 (DE3)(pLys), purified (Ni-NTA); SUMO tag removed with Ulp1 protease; not shown: His6, N-terminal, cleaved; SUMO, N-terminal, cleaved
T6 sequence: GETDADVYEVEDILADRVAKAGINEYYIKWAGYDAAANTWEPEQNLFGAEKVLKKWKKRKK

[7] = target: T7, Chp1CD wild type, SUMO tag removed, fluorescently labelled (for MST) (fission yeast (S. pombe), UniProt Q10103 15-75, fluorescent label, amine reactive (Monolith Protein Labeling Kit BLUE-NHS), 1:1 fluorescence:protein ratio); assay: as above
T7 construct: Chp1 chromodomain (Chp1CD), fission yeast; also called wild-type Chp1CD; fluorescent Chp1CD; source: E. coli BL21 (DE3)(pLys), purified (Ni-NTA); SUMO tag removed with Ulp1 protease; not shown: His6, N-terminal, cleaved; SUMO, N-terminal, cleaved
T7 sequence: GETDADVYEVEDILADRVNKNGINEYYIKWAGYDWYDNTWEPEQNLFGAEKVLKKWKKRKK

Measured: binding result

B1: [Lys(Me3)9]-Histone H3 ([…])-GGK(Biotin) peptide (peptide)
peptide: not shown
modifications: trimethyl-lysine at 9; biotin on the C-terminal lysine of GGK
notes: C-terminal linker with the biotinylated lysine; also called H3K9me3 peptide; H3K9me peptide; source: bought: Eurogentec (synthetic peptide)
binds: all assays above
